{"source": "paper PMC3091354", "about": "(Journal of chromatography. B, Analytical technologies in …, 2011)", "type": "in vivo", "details": "mouse, single i.p. 200 mg/kg", "note": "Values joined by “and” are separate entries in the source; they are usually repeats but may differ in a detail not shown here. Identical values can stand only once."}
{"smiles": "COc1cccc(CN)c1O", "note": "[3-MoSA, 3-methoxy-2-hydroxybenzylamine]", "values": [{"measurement": "AUC (0-t), brain", "result": "1339 ± 88 µg·h/g and 1338.9 ± 87.6 µg·h/g"}]}
